Molecules are shown by their SMILES. The entries are a selection whose mix differs from that of the whole data set. Calls of active or inactive are those of the source. Calls follow the shape of the dose curve; as a rule, active = well fitted inhibition curve with a large enough effect; inconclusive = small, poorly fitted or top-dose-only effect, or effect the other way; inactive = flat fitted curve, though single readings scatter.

By UniProt entry, the sequences of proteins in these tests, tags left out.
UniProt P10828, whole entry: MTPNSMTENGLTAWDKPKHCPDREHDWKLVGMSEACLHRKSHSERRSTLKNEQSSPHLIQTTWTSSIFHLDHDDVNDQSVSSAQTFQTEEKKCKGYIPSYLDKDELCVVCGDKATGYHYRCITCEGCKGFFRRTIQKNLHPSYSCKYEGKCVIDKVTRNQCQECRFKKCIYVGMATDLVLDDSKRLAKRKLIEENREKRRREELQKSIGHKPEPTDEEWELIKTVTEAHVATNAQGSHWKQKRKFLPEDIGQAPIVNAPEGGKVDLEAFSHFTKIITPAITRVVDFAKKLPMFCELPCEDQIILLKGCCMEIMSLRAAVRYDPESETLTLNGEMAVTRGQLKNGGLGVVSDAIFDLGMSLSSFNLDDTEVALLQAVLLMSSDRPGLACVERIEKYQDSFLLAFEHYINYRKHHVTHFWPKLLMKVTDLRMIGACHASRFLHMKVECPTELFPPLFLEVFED

The experiment has as its target Thyroid hormone receptor beta (Homo sapiens) (UniProt P10828). Put plainly: qHTS for Inhibitors of the Interaction of Thyroid Hormone Receptor and Steroid Receptor Coregulator 2.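 Also: plate controls were bound peptide for no effect and peptide without receptor for full effect; nearly all actives have a fitted effect of over 50% in size.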 As to conditions: TRbeta-SRC2 peptide binding, fluorescence polarization, receptor liganded with 1 µM T3. The source says:
NIH Molecular Libraries Probe Production Network [MLPCN]
NIH Chemical Genomics Center [NCGC]
Assay Provider: R. Kip Guy, St. Jude Children's Research Hospital
Thyroid receptor (TR) regulates many homeostatic processes including basal metabolism, cardiovascular function, body weight, and lipid trafficking. TR modulators are potential therapeutics for obesity and hyperlipidemias but current thyroid analogs have undesirable side effects, particularly cardiac stimulation. To identify inhibitors that specifically prevent the interaction of TR with the steroid receptor coregulator 2 (SRC2), a fluorescence polarization assay was screened. This assay detects interaction of the ligand-binding domain of human TRb with a Texas Red labeled SRC2 peptide, corresponding to a 20 amino acid region of the nuclear receptor interaction domain (Arnold et al., 2006). Small molecule inhibitors that block the interaction of TR and SRC2 are detected by a decrease in fluorescence polarization.
Arnold, L. A.; Estebanez-Perpina, E.; Togashi, M.; Shelat, A.; Ocasio, C. A.; McReynolds, A. C.; Nguyen, P.; Baxter, J. D.; Fletterick, R. J.; Webb, P.; Guy, R. K. A high-throughput screening method to identify small molecule inhibitors of thyroid hormone receptor coactivator binding. Sci STKE 2006, p 13.
NCGC Assay Protocol Summary:
For screening, 5 uL/well 0.6 uM TRb and 20 nM SRC2 Texas Red in protein buffer (20mM Tris hydrochloride, 100mM NaCl, 10% glycerol, 1mM EDTA, 0.01% NP-40, 1mM DTT, 1uM T3 and 5% DMSO) was dispensed into black solid 1536-well plates (Grenier) using a solenoid-based dispenser. Following transfer of 23 nL compound or DMSO vehicle by a pin tool, the plates were centrifuged 15 s at 1000 RPM and incubated 5 hr at ambient temperature. […] Data were normalized to unbound (all components except TRb) and bound SRC2 Texas Red controls. In this assay, we provide % activity data for each concentration as well as potencies for the active compounds.
Keywords: NIH Roadmap, MLPCN, MLI, MLSMR, qHTS, NCGC, qHTS, thyroid hormone receptor, steroid receptor coactivator, fluorescence polarization

As for `O=C(O)C1(O)c2ccccc2-c2ccccc21`, the activity change, negative = inhibition (at 106 µM (top of the series)) was inactive: -4.74%. Take `CC(C)(C)c1ccc(OP(C)(=O)Nc2ccc(SC(F)(F)F)cc2)cc1` (stereo not given): the activity change, negative = inhibition (at 106 µM (top of the series)) was inactive: 0.775%. The same measure, in the same setting: the result for `Cc1cccc(C)c1OP(C)(N)=O` (stereo not given) reads inactive: 1.36%; that for `O=C(O)C(O)(c1ccccc1)c1ccccc1`, inactive: 4.38%. Still for that read-out and setting: to `O=[N+]([O-])c1ccc2c(c1)C=Nc1ccccc1O2` belongs inactive: 1.44%.

As to `CCOC(=O)c1ccc(NP(C)(=O)Oc2ccccc2)cc1` (stereo not given), under “at 106 µM (top of the series)”, the activity change, negative = inhibition was inactive: -1.13%. Regarding `COc1ccccc1OP(C)(=O)Nc1ccc(C)cc1` (stereo not given), the activity change, negative = inhibition (at 106 µM (top of the series)) is inactive: -8.26%.

With `Cc1ccc(NP(C)(=O)Oc2ccccc2)c(C)c1` (stereo not given), under “at 106 µM (top of the series)”, the activity change, negative = inhibition was inactive: 6.17%. Take `COc1ccccc1OP(C)(=O)Nc1cc(Cl)ccc1C` (stereo not given): the activity change, negative = inhibition (at 53 µM (top of the series)) is inactive: 2.82%. For the molecule `COc1ccc(OP(C)(=O)Nc2cccc(F)c2)cc1` (stereo not given), the activity change, negative = inhibition (at 106 µM (top of the series)) was inactive: 5.52%. On the same count and under the same terms, to `Cc1cc(C)cc(OP(C)(N)=O)c1` (stereo not given) belongs inactive: -6.48%; to `CP(=S)(Nn1cnnc1)Oc1ccccc1` (stereo not given), inactive: 2.03%. The same measure, in the same setting: to `COc1ccccc1OP(C)(=O)Nc1ccccc1` (stereo not given) belongs inactive: -0.708%. The same measure, in the same setting: the result for `CP(=O)(Nc1ccccc1Br)Oc1ccccc1` (stereo not given) reads inactive: -2.63%.

As for `Cc1cccc(C)c1OP(C)(=O)Nc1ccc(SC(F)(F)F)cc1` (stereo not given), the activity change, negative = inhibition (at 106 µM (top of the series)) is inactive: -10.4%. Same read-out and setting: to `CP(=O)(Nc1ccc(SC(F)(F)F)cc1)Oc1ccc(Cl)cc1` (stereo not given) belongs inactive: -9.13%. For `CP(=O)(Oc1ccccc1)OC(c1ccccc1)C(F)(F)F` (stereo not given), the activity change, negative = inhibition (at 106 µM (top of the series)) was inactive: -2.49%. The same measure, in the same setting: the result for `CP(=O)(NC(=O)Nc1ccccc1)Oc1ccccc1` (stereo not given) reads inactive: -11%; that for `CCc1ccc(OP(C)(=O)N2CCN(c3ccc([N+](=O)[O-])cc3)CC2)cc1` (stereo not given), inactive: -8.25%. For `Cc1cc(C)cc(OP(C)(=O)Nc2ccc(SC(F)(F)F)cc2)c1` (stereo not given), the activity change, negative = inhibition (at 106 µM (top of the series)) is inactive: 2.05%. Turning to `CCOP(C)(=S)SCC(=O)NC(C)C(=O)O` (stereo not given), where the note is “at 106 µM (top of the series)”, the activity change, negative = inhibition is inactive: -20.4%. In the case of `CCOC(=O)c1ccc(NP(C)(=O)Oc2ccc(OC)cc2)cc1` (stereo not given), the activity change, negative = inhibition (at 106 µM (top of the series)) is inactive: 0.322%. On the same count and under the same terms, the result for `CN(C)CCS` reads inactive: 6.67%; that for `CP(=O)(Nc1ccccn1)Oc1ccc(Cl)cc1` (stereo not given), inactive: 10%; that for `O=[N+]([O-])c1cc([N+](=O)[O-])c(-n2nnc3ccccc32)c([N+](=O)[O-])c1`, inactive: 3.68%. Still for that read-out and setting: the result for `CC(C)N(CCCl)C(C)C` reads inactive: 0.33%; that for `Cc1nc2ccc3ccccc3c2s1.O=[N+]([O-])c1cc([N+](=O)[O-])c(O)c([N+](=O)[O-])c1`, inactive: -7.6%; that for `O=[N+]([O-])c1cc([N+](=O)[O-])c(Nc2nnnn2CCO)c([N+](=O)[O-])c1`, inactive: -1.57%. In the case of `COc1ccccc1OP(C)(=O)Nc1c(C)cccc1C` (stereo not given), the activity change, negative = inhibition (at 106 µM (top of the series)) is inactive: 0.433%.

With `CN1CCCCC1COC(=O)C1(O)c2ccccc2CCc2ccccc21` (stereo not given), for the setting “at 106 µM (top of the series)”, the activity change, negative = inhibition is inactive: -2.36%. Same read-out and setting: the result for `CCCOc1ccc(NP(C)(=O)Oc2ccc(Cl)cc2)cc1` (stereo not given) reads inactive: 3.93%; that for `CP(=O)(Nc1ccc(SC(F)(F)F)cc1)Oc1ccccc1` (stereo not given), inactive: -0.84%.

On to `O=[N+]([O-])c1cccc([N+](=O)[O-])c1`, for which the activity change, negative = inhibition is inactive: 0.66% (at 106 µM (top of the series)) and inactive: 2.08% (at 201 µM (top of the series)).

As for `CCOP(=S)(CC)Oc1cc(Cl)c(Cl)cc1Cl` (stereo not given), the activity change, negative = inhibition (at 201 µM (top of the series)) was inactive: 0.422%. Turning to `Cc1ccc([N+](=O)[O-])cc1[N+](=O)[O-]`, the activity change, negative = inhibition is, setting by setting: (at 106 µM (top of the series)) inactive: 0.474%; (at 201 µM (top of the series)) inactive: -4.89%. In the case of `CC1=NCCc2c1[nH]c1ccccc21.O=[N+]([O-])c1cc([N+](=O)[O-])c(O)c([N+](=O)[O-])c1`, under “at 106 µM (top of the series)”, the activity change, negative = inhibition is inactive: -3.63%. The same measure, in the same setting: the result for `COc1ccccc1OP(C)(=O)Nc1cccc(Br)c1` (stereo not given) reads inactive: 9.55%.

For `Cc1cc(C)cc(OP(C)(=O)Nc2ccc(C)cc2C)c1` (stereo not given), the activity change, negative = inhibition (at 106 µM (top of the series)) is inactive: 6.11%.

With `CCOC(=O)c1ccc(NP(C)(=O)Oc2cc(C)cc(C)c2)cc1` (stereo not given), the activity change, negative = inhibition (at 106 µM (top of the series)) is inactive: 8.52%. On the same count and under the same terms, the result for `Cc1cc(C)cc(OP(C)(=O)Nc2ccccn2)c1` (stereo not given) reads inactive: -0.399%. The same measure, in the same setting: to `CP(=O)(Nc1cccc(Br)c1)Oc1ccccc1` (stereo not given) belongs inactive: 7.23%; to `Cc1ccc(C)c(NP(C)(=O)Oc2ccccc2)c1` (stereo not given), inactive: -6.25%; to `CC(C)c1ccc(OP(C)(=O)Nc2ccc(SC(F)(F)F)cc2)cc1` (stereo not given), inactive: -5.9%.

Turning to `CP(=O)(Nc1ccccc1F)Oc1ccccc1` (stereo not given), where the note is “at 106 µM (top of the series)”, the activity change, negative = inhibition is inactive: -7.55%. With `O=C(OCCN1CCN(CCOCc2ccccc2)CC1)C(O)(c1ccccc1)c1ccccc1`, the activity change, negative = inhibition (at 53 µM (top of the series)) is inactive: -2.36%. Turning to `CCC(C)(OO)OOC(C)(CC)OO` (stereo not given), the activity change, negative = inhibition was inactive: 5.24% (at 106 µM (top of the series)) and inactive: -0.759% (at 201 µM (top of the series)).

As to `Cc1cccc([N+](=O)[O-])c1[N+](=O)[O-]`, the activity change, negative = inhibition is inactive: 6.17% (at 106 µM (top of the series)) and inactive: -6.16% (at 201 µM (top of the series)).

As to `COc1ccc(OP(C)(=O)Nc2ccc(SC(F)(F)F)cc2)cc1` (stereo not given), the activity change, negative = inhibition (at 106 µM (top of the series)) is inactive: -7.48%. Consider `CCOC(=O)c1ccc(NP(C)(=O)Oc2ccc(F)cc2)cc1` (stereo not given), for which, where the note is “at 106 µM (top of the series)”, the activity change, negative = inhibition is inactive: 8.52%. Same read-out and setting: to `CCN(CC)CCCOC(=O)C(O)(c1ccccc1)C1CCCCC1` (stereo not given) belongs inactive: 0.266%. Still for that read-out and setting: to `CCCCCOc1ccc(NP(C)(=O)Oc2ccc(Cl)cc2Cl)cc1` (stereo not given) belongs inactive: 8.47%; to `CP(=O)(Nc1ccccc1)Oc1ccc(F)cc1` (stereo not given), inactive: -15.7%; to `COc1ccc(OP(C)(=O)Nc2cccc(Br)c2)cc1` (stereo not given), inactive: 3.84%. On the same count and under the same terms, the result for `COc1ccc(NP(C)(=O)Oc2ccccc2OC)cc1` (stereo not given) reads inactive: 3.65%. As for `Cc1ccc([N+](=O)[O-])c([N+](=O)[O-])c1`, the activity change, negative = inhibition (at 106 µM (top of the series)) was inactive: 3.78% and the activity change, negative = inhibition (at 201 µM (top of the series)) was inactive: -2.5%. Taken in the same sequence, the figures for `Cc1c([N+](=O)[O-])cccc1[N+](=O)[O-]` were inactive: -13% and inactive: 4.64%. In the case of `Cc1cc(-c2cccc3ccccc23)c(C)cn1.O=[N+]([O-])c1cc([N+](=O)[O-])c(O)c([N+](=O)[O-])c1`, the activity change, negative = inhibition (at 106 µM (top of the series)) is inactive: 7.49%. Take `O=[N+]([O-])c1ccc(OP2(=O)COCCO2)cc1` (stereo not given): for the setting “at 106 µM (top of the series)”, the activity change, negative = inhibition was inactive: -1.19%. As for `CP(=O)(Nc1ccc(SC(F)(F)F)cc1)Oc1ccc(F)cc1` (stereo not given), the activity change, negative = inhibition (at 106 µM (top of the series)) was inactive: -1.31%. The same measure, in the same setting: to `CCOP(=O)(CC)OCC` belongs inactive: -8.18%; to `CCOP(C)(=S)SCC(=O)NC(C)(CC)C(=O)O` (stereo not given), inactive: 3%; to `CP(=O)(Nc1ccc2c(c1)OCCO2)Oc1ccccc1` (stereo not given), inactive: 3.71%.

`Cc1ccccc1NP(C)(=O)Nc1ccccc1C`: under “at 106 µM (top of the series)”, the activity change, negative = inhibition was inactive: 0.987%. On the same count and under the same terms, the result for `COc1ccc(OP(C)(=O)Nc2ccc(Br)cc2)cc1` (stereo not given) reads inactive: -0.407%.

Source of the values: PubChem BioAssay AID1469 (National Center for Advancing Translational Sciences (NCATS), 2008).
